58 compounds from PubChem BioAssay AID624330 (Southern Research Specialized Biocontainment Screening …, 2012) can be followed below.

Protein sequences, listed by entry. Tags and fused reporters are not part of them. Lines headed by an entry give the natural chain unless they say otherwise; changes in a name come on top.
UniProt Q9H0H5: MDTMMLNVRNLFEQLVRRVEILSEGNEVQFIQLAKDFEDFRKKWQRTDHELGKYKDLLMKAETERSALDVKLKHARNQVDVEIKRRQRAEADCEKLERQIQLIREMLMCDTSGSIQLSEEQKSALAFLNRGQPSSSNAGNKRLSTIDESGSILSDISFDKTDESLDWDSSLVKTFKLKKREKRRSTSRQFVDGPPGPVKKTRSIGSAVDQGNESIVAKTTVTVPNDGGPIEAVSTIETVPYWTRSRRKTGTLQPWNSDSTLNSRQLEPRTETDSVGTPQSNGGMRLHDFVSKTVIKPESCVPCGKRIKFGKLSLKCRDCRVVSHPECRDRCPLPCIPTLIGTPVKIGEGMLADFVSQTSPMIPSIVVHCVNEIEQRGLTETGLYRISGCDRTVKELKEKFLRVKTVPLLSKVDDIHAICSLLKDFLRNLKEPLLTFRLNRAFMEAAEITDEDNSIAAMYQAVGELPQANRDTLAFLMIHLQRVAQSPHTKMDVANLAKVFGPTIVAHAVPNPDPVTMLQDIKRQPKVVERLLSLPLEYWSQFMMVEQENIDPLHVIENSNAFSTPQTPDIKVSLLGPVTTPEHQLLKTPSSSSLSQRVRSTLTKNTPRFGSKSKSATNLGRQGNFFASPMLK

This is one part of the list. Potency and affinity values are given separately. Active and inactive are the calls of the source.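 How the source made its calls: active means first-screen hits whose inhibition reached a set limit at any dose in the follow-up dose series; inconclusive means inhibition above the set first-screen limit but never retested; inactive means the rest.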

The assay has as its target Rac GTPase-activating protein 1 (Homo sapiens) (UniProt Q9H0H5). Briefly: blockers of MgcRacGAP-driven Rac1 GTP hydrolysis – biochemical, ADP Hunter fluorescence, primary and confirmatory, confirmation (AID 624330).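 Further: fluorescence reports GDP produced by GAP-driven GTP hydrolysis.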 To be noted: MgcRacGAP-stimulated Rac1 GTP hydrolysis, at 30 µM, stronger effect = higher value, GST-tagged Rac1 F28L mutant substrate.
One may read the inhibition as the relative decrease from the control value, in per cent. As to `CC1CCNP(=O)(N(CCCl)CCCl)O1` (stereo not drawn), the inhibition is inactive: 0.47%.

With `CCOC(=O)Nc1ccc([As](=O)(O)O)c(O)c1`, the inhibition was inactive: 0.96%.

With `O=C(O)C(O)c1ccc(N(CCCl)CCCl)cc1` (stereo not drawn), the inhibition was inactive: 6.67%.

In the case of `O=[N+]([O-])c1ccc(Nc2ccc(Oc3ccc([N+](=O)[O-])cc3[N+](=O)[O-])cc2)c([N+](=O)[O-])c1`, the inhibition is inactive: 6.5%.

On to `O=P(Nc1ccccn1)(c1cccc2ccccc12)c1cccc2ccccc12`, for which the inhibition was inactive: 4.7%.

Regarding `Cc1cc(SC(NC=O)C(Cl)(Cl)Cl)ncn1` (stereo not drawn), the inhibition was inactive: 13.1%.

Consider `CCOC(=O)Nc1cccc([As](=O)(O)O)c1`, for which the inhibition was inactive: 4.22%.

For `O=C(COc1ccccc1)OC1CN2CCC1CC2` (stereo not drawn), the inhibition was inactive: 2.76%.

Take `O=C(O)C(=O)c1ccc(N(CCCl)CCCl)cc1`: the inhibition is inactive: 2.77%.

In the case of `COP1(=S)c2c(C)nn(CCC#N)c2N=C(c2ccc(F)cc2)N1C` (stereo not drawn), the inhibition was inactive: 4.48%.

Take `CCC(C)N(CC(C)C)C(=S)SC(NC(C)=O)C(Cl)(Cl)Cl` (stereo not drawn): the inhibition was inactive: 3.31%.

Take `CCOC(=O)c1ccc(NC(=O)C(C)(CCl)SC)cc1` (stereo not drawn): the inhibition was inactive: 8.05%.

Take `CSc1ccc(Nc2c([N+](=O)[O-])cc([N+](=O)[O-])cc2[N+](=O)[O-])cc1`: the inhibition is inactive: 0.26%.

Turning to `CC(C)(C)C(=O)NC(Sc1ncccn1)C(Cl)(Cl)Cl` (stereo not drawn), the inhibition is inactive: 11.6%.

Regarding `O=P1(N(CCCl)CCCl)NCCC(C(F)(F)F)O1` (stereo not drawn), the inhibition was inactive: 5.57%.

With `Clc1n[nH]nc1-c1nn[nH][15n]1`, the inhibition is inactive: 4.29%.

In the case of `CCOP(=O)(Nc1ccc(C)cn1)OCC`, the inhibition is inactive: 2.53%.

As to `CCOP(=O)(NC(=NC(C)c1ccccc1)NC(C)c1ccccc1)OCC` (stereo not drawn), the inhibition was inactive: 2.61%.

Turning to `O=P1(Nc2ccccn2)COc2ccccc2OC1`, the inhibition is inactive: 6.29%.

On to `CCC1=CC2Cc3nc4ccc(Cl)cc4c(N)c3C(C1)C2` (stereo not drawn), for which the inhibition is inactive: 8.95%.

With `CC1(CBr)Cn2c(nc3ccccc3c2=O)S1` (stereo not drawn), the inhibition is inactive: 15.1%.

On to `CC(C)/C=N\N=C(\N)N[N+](=O)[O-]`, for which the inhibition is inactive: -8.4%.

As to `CN(C(=O)Cc1ccc(Cl)c(Cl)c1)[C@@H]1CCCC[C@H]1N1CCCC1`, the inhibition was inactive: 1.94%.

For the compound `COc1ccccc1CNC(=O)COC(=O)C(O)(c1ccccc1)c1ccccc1`, the inhibition was inactive: 9.86%.

Turning to `CCCC1OP(=O)(Nc2ccccc2)OCC1CC` (stereo not drawn), the inhibition was inactive: -1.2%.

With `O=C(/C=C/c1ccccc1)OC1CN2CCC1CC2` (stereo not drawn), the inhibition was inactive: 3.44%.

As to `CN(C)C1(CNC(=O)c2ccc(S(C)(=O)=O)cc2)CCCCC1`, the inhibition is inactive: -0.97%.

On to `CC1CCC(C(C)C)C(OP(=O)(Nc2ccccn2)c2ccccc2)C1` (stereo not drawn), for which the inhibition is inactive: 1.85%.

In the case of `Cc1ccc(C(=O)OC2CN3CCC2CC3)cc1` (stereo not drawn), the inhibition is inactive: 7.39%.

Consider `Cc1nn(-c2ccccc2)c2c1P(=O)(N1CCOCC1)N(C)C(c1ccccc1)=N2` (stereo not drawn), for which the inhibition was inactive: 7.75%.

For `O=P1(Nc2ccc(Br)cn2)COc2ccccc2OC1`, the inhibition was inactive: 6.82%.

`NS(=O)(=O)c1cccc(NC(=O)COC(=O)C(O)(c2ccccc2)c2ccccc2)c1`: the inhibition was inactive: 2.07%.

As to `Cc1ccc(OCC(=O)OC2CN3CCC2CC3)cc1` (stereo not drawn), the inhibition is inactive: 2.33%.

Regarding `O=[As](O)(c1cccs1)c1cccs1`, the inhibition is inactive: 3.92%.

Turning to `Nc1cccc([As](=O)(O)c2ccccc2)c1`, the inhibition is inactive: 0.99%.

For the compound `O=P1(Nc2ncccn2)COc2ccccc2OC1`, the inhibition is inactive: 5.16%.

In the case of `Nc1ccccc1[As](=O)(O)c1ccccc1`, the inhibition is inactive: 4.65%.

As to `O=C(O)COc1ccc([As](=O)(O)O)cc1[N+](=O)[O-]`, the inhibition is inactive: 3.36%.

In the case of `O=P(Nc1nccs1)(Oc1ccccc1)Oc1ccccc1`, the inhibition is inactive: -15.4%.

Consider `CCOP1(=S)c2c(C)nn(CCC#N)c2N=C(c2ccccc2F)N1C` (stereo not drawn), for which the inhibition is inactive: 18.1%.

For `CN(C(=O)Cc1ccc(Cl)c(Cl)c1)[C@H]1CC[C@@]2(CCCO2)C[C@@H]1N1CCCC1`, the inhibition was inactive: 6.35%.

As to `CN(C)C(=O)c1cc([N+](=O)[O-])cc2c1-c1c(cc([N+](=O)[O-])cc1[N+](=O)[O-])C2=O`, the inhibition is inactive: -2.29%.

On to `O=[N+]([O-])c1ccc2c(c1)nnn2O`, for which the inhibition was inactive: 6.15%.

Take `CN(C(=O)Cc1ccccc1)[C@@H]1CC[C@]2(CCCO2)C[C@H]1N1CCCC1`: the inhibition was inactive: 4.56%.

Turning to `CCOP1(=S)c2c(C)nn(CCC#N)c2N=C(c2ccc(F)cc2)N1C` (stereo not drawn), the inhibition is inactive: -0.913%.

On to `N#CCCN(C(=O)COC(=O)C(O)(c1ccccc1)c1ccccc1)c1ccc(F)cc1`, for which the inhibition was inactive: 6.47%.

As for `NC(=O)Nc1ccc([As](=O)(O)O)cc1`, the inhibition is inactive: 11.9%.

Consider `O=[As](O)(c1cccc(O)c1)c1cccc(O)c1`, for which the inhibition is inactive: 5.78%.

Turning to `Cc1cccc(OCC(=O)OC2CN3CCC2CC3)c1` (stereo not drawn), the inhibition is inactive: 3.45%.

For `CS(=O)(=O)c1ccc(Cl)c(NC(=O)COC(=O)C(O)(c2ccccc2)c2ccccc2)c1`, the inhibition is inactive: 4.26%.

With `COc1cc(C(=O)NCC2(N3CCOCC3)CCCCC2)cc(Cl)c1OC(C)C`, the inhibition was inactive: 11.9%.

For the compound `O=[As](O)(O)c1cccnc1`, the inhibition is inactive: 11.5%.

Turning to `O=C(OC1CN2CCC1CC2)c1ccc(Cl)cc1` (stereo not drawn), the inhibition was inactive: 7.17%.

As to `CCOP(=O)(Nc1cccc2ccccc12)OCC`, the inhibition was inactive: 6.84%.

`COc1cc(C2NCCC3(OCCO3)C2(C)C)cc(OC)c1OC` (stereo not drawn): the inhibition is inactive: -17.1%.

Turning to `CCCOP(=S)(Nc1nc(N)cc(=O)[nH]1)OCCC`, the inhibition was inactive: 6.5%.

In the case of `Cc1ccc(NCCc2c([N+](=O)[O-])cc([N+](=O)[O-])cc2[N+](=O)[O-])cc1`, the inhibition was inactive: 1.21%.

On to `Nc1cccc2c([As](=O)(O)O)cccc12`, for which the inhibition was inactive: 14.1%.
